Reference: patent US20200010814A1, “NOVEL MONOOXYGENASE AND UTILIZATION THEREOF” (KANEKA CORPORATION, priority 2017, published 2020)

What was measured:
NADH = assay: purified protein, by the assay type; conditions: pH 7.5
NADPH = assay: purified protein, by the assay type; conditions: pH 7.5

Substance: peg.801 (Rhodococcus wratislaviensis)
- Km (NADH): 0.0082 mM
- Km (NADPH): 6.2 mM
